Data published in patent US9290463B2, “Radiolabeled compounds and uses thereof” (THE TRUSTEES OF COLUMBIA UNIVERSITY IN THE CITY OF NEW YORK, priority 2010, dated 2016).

Chains of the proteins cited; added tags and fusions are not shown.
UniProt P08908, whole entry: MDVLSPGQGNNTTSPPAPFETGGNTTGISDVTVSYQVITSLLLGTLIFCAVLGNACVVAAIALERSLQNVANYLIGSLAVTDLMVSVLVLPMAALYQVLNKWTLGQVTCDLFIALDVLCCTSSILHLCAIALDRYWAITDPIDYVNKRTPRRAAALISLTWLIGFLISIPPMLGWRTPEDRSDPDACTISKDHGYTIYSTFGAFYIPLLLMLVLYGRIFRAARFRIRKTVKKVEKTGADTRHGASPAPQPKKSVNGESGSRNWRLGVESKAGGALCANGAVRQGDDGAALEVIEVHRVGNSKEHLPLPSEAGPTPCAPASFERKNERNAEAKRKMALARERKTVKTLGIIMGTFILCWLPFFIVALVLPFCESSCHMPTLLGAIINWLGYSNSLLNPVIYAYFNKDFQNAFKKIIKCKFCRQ
UniProt P35348, whole entry: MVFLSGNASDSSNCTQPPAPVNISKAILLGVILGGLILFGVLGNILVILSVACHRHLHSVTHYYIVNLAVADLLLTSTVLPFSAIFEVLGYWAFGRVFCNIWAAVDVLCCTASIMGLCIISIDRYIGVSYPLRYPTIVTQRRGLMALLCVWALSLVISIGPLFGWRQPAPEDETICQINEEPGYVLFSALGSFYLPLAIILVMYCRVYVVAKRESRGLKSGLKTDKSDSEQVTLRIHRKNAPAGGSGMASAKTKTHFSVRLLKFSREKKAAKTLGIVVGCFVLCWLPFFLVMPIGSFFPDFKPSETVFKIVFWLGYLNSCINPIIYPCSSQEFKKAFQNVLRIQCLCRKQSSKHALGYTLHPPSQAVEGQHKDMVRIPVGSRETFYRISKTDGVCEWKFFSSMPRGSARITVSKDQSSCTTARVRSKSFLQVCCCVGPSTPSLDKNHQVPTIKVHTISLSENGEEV

Key:
5-HT1AR = 5-HT1AR (Homo sapiens (Human), UniProt P08908); assay: [35S]GTPγS binding in membranes of CHO cells stably expressing the human 5-HT1AR
Experimental: (§1) The affinity of 18 for various biogenic amines, brain receptors, and transporters was determined through National Institute of Mental Health Psychoactive Drug Screening Program (NIMH-PDSP). Compound 18 has a Ki of 21.4±0.6 nM for alpha1AR, which is 214 times higher than Ki of 5-HT1AR. This is much better than the Ki of compound 19 for alpha1AR is 6.75 nM, which is only 45 times higher than Ki of 5-HT1AR. […] Compound 18 produced a dose-dependent increase in [^35S]GTPγS binding.

alpha1AR = alpha1AR (Homo sapiens (Human), UniProt P35348); assay: NIMH-PDSP affinity screen, alpha1AR; conditions: selectivity ratio
Experimental: as §1

Maximal stimulated [35S]GTPγS binding Emax (5-HT1AR): 80 % of that seen with 5-HT | Effect on [35S]GTPγS binding (5-HT1AR; in words): dose-dependent increase | Ki for alpha1AR, times higher than Ki of 5-HT1AR (alpha1AR): 214 times
Compound: Cn1c(=O)cnn(CCCCN2CCN(c3ccccc3OCCF)CC2)c1=O
